Literature values, collected in patent US7507707B2, “Methods of inducing ovulation using a non-polypeptide camp level modulator” (Laboratoires Serono SA, priority 2001, dated 2009).

Details: cited from earlier work

In the case of “hCG: glycoprotein hormone that is biologically and immunologically similar to pituitary LH”, the “detectable in the patient's blood after injection” value (after injection) is listed as 7 to 10 days and the half-life (patient) is listed as “approximately 8 hours”.
